Values joined by “and” are separate entries in the source; they are usually repeats but may differ in a detail not shown here. Equal entries are not always repeated.
Columns and labels:
E. faecium [1] = assay: Bacterial viability assay (Microbial Viability Assay Kit-WST, OD450); assay type: cell-based, Enterococcus faecium; conditions: single values
Caski cells = assay: Cell cytotoxicity assay (Cell Counting Kit-8, 5 days); assay type: cell-based, human; conditions: with each cell line (Caski, Hep-2 and Calu-3)
E. faecium [2] = assay: Relative quantitation of mRNA of folate-binding proteins (qPCR); assay type: cell-based, Enterococcus faecium; conditions: 2 μM, single values
efmSHMT = assay type: binding, Enterococcus faecium; conditions: DSF; final drug concentration 50 μM
E. faecium [3] = assay: Antibacterial assay with an excess concentration of biomolecules (Ser, Gly, inosine, dT, FA); conditions: E. faecium JCM5804

For `Cc1n[nH]c2c1[C@](c1cc(CO)cc(-c3ccccc3)c1)(C(C)C)C(C#N)=C(N)O2` [(+)-SHIN-1], the Relative bacterial viability (E. faecium [1]; 0.002 nM, 0 hours) was 0.02429 and 0.01932 and 0.02699, the Relative bacterial viability (E. faecium [1]; 0.002 nM, 2 hours) was 0.03004 and 0.03309 and 0.03812 and the Relative bacterial viability (E. faecium [1]; 0.002 nM, 6 hours) was 0.5169 and 0.6074 and 0.5088. The Relative bacterial viability (E. faecium [1]; 0.002 nM, 8 hours) was 0.7263 and 0.5166 and 0.6744, the Relative bacterial viability (E. faecium [1]; 0.002 nM, 10 hours) was 0.7297 and 0.6296 and 0.8675 and the Relative bacterial viability (E. faecium [1]; 0.002 nM, 12 hours) was 0.7481 and 0.8347 and 0.8542. The Relative bacterial viability (E. faecium [1]; 0.002 nM, 14 hours) was 0.7092 and 0.7528 and 0.8693, the Relative bacterial viability (E. faecium [1]; 0.02 nM, 0 hours) was 0.02483 and 0.02435 and 0.02492 and the Relative bacterial viability (E. faecium [1]; 0.02 nM, 2 hours) was 0.03006 and 0.03128 and 0.03314. The Relative bacterial viability (E. faecium [1]; 0.02 nM, 6 hours) was 0.4513 and 0.5391 and 0.5152, the Relative bacterial viability (E. faecium [1]; 0.02 nM, 8 hours) was 0.5639 and 0.6166 and 0.6675 and the Relative bacterial viability (E. faecium [1]; 0.02 nM, 10 hours) was 0.6198 and 0.6896 and 0.6835. For the same compound, the Relative bacterial viability (E. faecium [1]; 0.02 nM, 12 hours) was 0.6343 and 0.6046 and 0.7527, the Relative bacterial viability (E. faecium [1]; 0.02 nM, 14 hours) was 0.5602 and 0.701 and 0.662 and the Relative bacterial viability (E. faecium [1]; 0.2 nM, 0 hours) was 0.0233 and 0.02329 and 0.02623. The Relative bacterial viability (E. faecium [1]; 0.2 nM, 2 hours) was 0.02436 and 0.03032 and 0.03225, the Relative bacterial viability (E. faecium [1]; 0.2 nM, 4 hours) was 0.08823 and 0.1393 and 0.1446 and the Relative bacterial viability (E. faecium [1]; 0.2 nM, 6 hours) was 0.301 and 0.4695 and 0.3439. For the same compound, the Relative bacterial viability (E. faecium [1]; 0.2 nM, 8 hours) was 0.3818 and 0.4551 and 0.5048, the Relative bacterial viability (E. faecium [1]; 0.2 nM, 10 hours) was 0.4983 and 0.4878 and 0.5532 and the Relative bacterial viability (E. faecium [1]; 0.2 nM, 12 hours) was 0.469 and 0.5601 and 0.3666. For the same compound, the Relative bacterial viability (E. faecium [1]; 0.2 nM, 14 hours) was 0.4443 and 0.5334 and 0.5469, the Relative bacterial viability (E. faecium [1]; 2 nM, 0 hours) was 0.02007 and 0.02438 and 0.02356 and the Relative bacterial viability (E. faecium [1]; 2 nM, 2 hours) was 0.03292 and 0.02617 and 0.03084. For the same compound, the Relative bacterial viability (E. faecium [1]; 2 nM, 4 hours) was 0.1475 and 0.08523 and 0.1641, the Relative bacterial viability (E. faecium [1]; 2 nM, 6 hours) was 0.2471 and 0.303 and 0.3379 and the Relative bacterial viability (E. faecium [1]; 2 nM, 8 hours) was 0.4104 and 0.4271 and 0.369. The Relative bacterial viability (E. faecium [1]; 2 nM, 10 hours) was 0.3801 and 0.4059 and 0.397, the Relative bacterial viability (E. faecium [1]; 2 nM, 12 hours) was 0.405 and 0.335 and 0.3218 and the Relative bacterial viability (E. faecium [1]; 2 nM, 14 hours) was 0.346 and 0.3933 and 0.3283. The Relative bacterial viability (E. faecium [1]; 20 nM, 0 hours) was 0.02589 and 0.02697 and 0.02933, the Relative bacterial viability (E. faecium [1]; 20 nM, 2 hours) was 0.02853 and 0.02842 and 0.03437 and the Relative bacterial viability (E. faecium [1]; 20 nM, 4 hours) was 0.0851 and 0.1525 and 0.1401. The Relative bacterial viability (E. faecium [1]; 20 nM, 6 hours) was 0.2225 and 0.2825 and 0.2517, the Relative bacterial viability (E. faecium [1]; 20 nM, 8 hours) was 0.3287 and 0.2343 and 0.2795 and the Relative bacterial viability (E. faecium [1]; 20 nM, 10 hours) was 0.2735 and 0.311 and 0.2601. For the same compound, the Relative bacterial viability (E. faecium [1]; 20 nM, 12 hours) was 0.285 and 0.2913 and 0.2651, the Relative bacterial viability (E. faecium [1]; 20 nM, 14 hours) was 0.2651 and 0.258 and 0.2518 and the “selectivity index (S.I.): CC50 against each cell line / EC50 against E. faecium” value (Caski cells) was “exceeded 45,000”. For the same compound, the “Relative mRNA level of Fhs with and without (+)-SHIN-1” value (E. faecium [2]; 4 hours) was 0.5212 and 0.5176 and 0.4263 and 0.712, the “Relative mRNA level of GcvH with and without (+)-SHIN-1” value (E. faecium [2]; 4 hours) was 1.266 and 1.079 and 1.072 and 1.248 and the “Relative mRNA level of MetE with and without (+)-SHIN-1” value (E. faecium [2]; 4 hours) was 0.7022 and 0.5471 and 0.5 and 0.8011. The “Relative mRNA level of SHMT with and without (+)-SHIN-1” value (E. faecium [2]; 4 hours) was 1.434 and 1.214 and 1.395 and 0.9931 and 0.9526 and 1.682, the “Relative mRNA level of FolD with and without (+)-SHIN-1” value (E. faecium [2]; 10 hours) was 1.79 and 2.056 and 1.338 and 1.879 and the “Relative mRNA level of GcvH with and without (+)-SHIN-1” value (E. faecium [2]; 10 hours) was 2.479 and 2.266 and 1.866 and 1.905. For the same compound, the “Relative mRNA level of MetE with and without (+)-SHIN-1” value (E. faecium [2]; 10 hours) was 3.706 and 2.621 and 1.959 and 1.866.

`CN[C@H]1CC[C@@H](c2ccc(Cl)c(Cl)c2)c2ccccc21` [SER, sertraline] was tested, and the Relative bacterial viability (E. faecium [1]; 4 μM, 0 hours) was 0.01643 and 0.01709 and 0.02505 and 0.02136 and 0.02139 and 0.01651 and 0.02544 and 0.02186, the Relative bacterial viability (E. faecium [1]; 4 μM, 2 hours) was 0.03008 and 0.03236 and 0.03793 and 0.03714 and 0.02993 and 0.02838 and 0.0317 and 0.03137 and the Relative bacterial viability (E. faecium [1]; 4 μM, 6 hours) was 0.7408 and 0.8154 and 0.8695 and 0.8307 and 0.4983 and 0.4746 and 0.4926 and 0.517. The Relative bacterial viability (E. faecium [1]; 4 μM, 8 hours) was 0.7398 and 0.6817 and 0.6102 and 0.6308 and 0.6696 and 0.7376 and 0.6939 and 0.6024, the Relative bacterial viability (E. faecium [1]; 4 μM, 10 hours) was 0.7553 and 0.6503 and 0.6659 and 0.7068 and the Relative bacterial viability (E. faecium [1]; 4 μM, 12 hours) was 0.9534 and 0.9538 and 0.9571 and 0.87 and 0.8973 and 0.9262 and 0.9135 and 0.935. The Relative bacterial viability (E. faecium [1]; 4 μM, 14 hours) was 0.9939 and 0.9995 and 0.9938 and 0.9905 and 0.9695 and 0.9711 and 0.9915 and 0.9919, the Relative bacterial viability (E. faecium [1]; 40 μM, 0 hours) was 0.06773 and 0.07011 and 0.04926 and 0.05181 and 0.06275 and 0.056 and 0.05534 and 0.07801 and the Relative bacterial viability (E. faecium [1]; 40 μM, 2 hours) was 0.08142 and 0.09734 and 0.07955 and 0.07164 and 0.07725 and 0.07311 and 0.06901 and 0.09679. For the same compound, the Relative bacterial viability (E. faecium [1]; 40 μM, 4 hours) was 0.08959 and 0.09369 and 0.07599 and 0.08366 and 0.07938 and 0.08195 and 0.08682 and 0.1057, the Relative bacterial viability (E. faecium [1]; 40 μM, 6 hours) was 0.08914 and 0.1155 and 0.0796 and 0.08927 and 0.09836 and 0.09692 and 0.09332 and 0.1195 and the Relative bacterial viability (E. faecium [1]; 40 μM, 8 hours) was 0.08126 and 0.09978 and 0.08555 and 0.07545 and 0.0961 and 0.08176 and 0.08217 and 0.1035. The Relative bacterial viability (E. faecium [1]; 40 μM, 10 hours) was 0.09012 and 0.1052 and 0.08865 and 0.07965 and 0.09035 and 0.08629 and 0.09816 and 0.1031, the Relative bacterial viability (E. faecium [1]; 40 μM, 12 hours) was 0.09668 and 0.09937 and 0.08521 and 0.08042 and 0.08964 and 0.08051 and 0.0853 and 0.1021 and the Relative bacterial viability (E. faecium [1]; 40 μM, 14 hours) was 0.09884 and 0.08998 and 0.08117 and 0.08774 and 0.08986 and 0.0806 and 0.08989 and 0.09534. The “ΔTm (thermal stability of efmSHMT)” value (efmSHMT) was “did not stabilise efmSHMT significantly”.

With `Cc1[nH]nc2c1C(c1cc(CO)cc(-c3ccccc3)c1)(C(C)C)C(C#N)=C(N)O2` (stereo not drawn) [SHIN-1] the “F.I. (fold increase: EC50 with supplement / EC50 without supplement)” value (E. faecium [3]; 1 mM Inosine) was 10, the “F.I. (fold increase: EC50 with supplement / EC50 without supplement)” value (E. faecium [3]; 1 mM deoxythymidine) was >3 × 10^3 and the “F.I. (fold increase: EC50 with supplement / EC50 without supplement)” value (E. faecium [3]; 10 mM Glycine) was 2. The “F.I. (fold increase: EC50 with supplement / EC50 without supplement)” value (E. faecium [3]; 100 mM Serine) was 5.

Reference: paper PMC9223267, “Serine hydroxymethyltransferase as a potential target of antibacterial agents acting synergistically with one-carbon metabolism-related inhibitors” (Communications Biology, 2022)
